Laboratory results published in patent publication US20250057930A1, “ANAPLASTIC LYMPHOMA KINASE (ALK) CANCER VACCINES AND METHODS OF USE THEREOF” (The Children's Medical Center Corporation, priority 2022, published 2025).

Legend:
[1] = system: ALK-rearranged (ALK^+) NSCLC; settings: first-line treatment; cited from earlier work
[2] = system: hEML4-ALK Tg mice (ALK^+ lung tumors); experiment: Lung tumor volume by MRI and survival in hEML4-ALK Tg mice

SMILES	time to disease progression in most patients [1]	tumor response at the end of treatment ([2]; crizotinib 40 mg/kg or lorlatinib 2 mg/kg, MRI)	tumor regression at higher dosages ([2]; higher dose (crizotinib 100 mg/kg DIE))
CCc1cc2c(cc1N1CCC(N3CCOCC3)CC1)C(C)(C)c1[nH]c3cc(C#N)ccc3c1C2=O [alectinib]	three	–	–
C[C@@H](Oc1cc(-c2cnn(C3CCNCC3)c2)cnc1N)c1c(Cl)ccc(F)c1Cl [crizotinib]	–	partial tumor regression	almost complete tumor regression
